# According to patent US4778784A, “Cyclic peptide and method of use for inducing an immunological response to hepatitis B virus” (Baylor College of Medicine, priority 1987, dated 1988):
# System: common anti-HBs idiotype (CId)-anti-idiotype reaction
# Assay: Inhibition of the common anti-HBs idiotype binding its anti-idiotype antiserum
# Design: species or system human
# From the text: The second immunochemical tool used to determine the ability of peptide 1 to elicit protective antibody resided with the idiotypic specificity of the anti-HBs antibodies produced by HBV-infected humans. The basic concept of the idiotypic system is illustrated in FIG. 6. The region associated with the variable region (VL and VH) of the immunoglobulin (Ig) molecule and which contains the antigencombining site has been defined by Oudin (Reference 39) as the idiotype of that Ig molecule. An anti-idiotypereagent is produced by injection of a second species, such as rabbits, with specifically purified antibody, e.g., human anti-HBs. The resulting rabbit antiserum is extensively adsorbed with normal human Ig negative for anti-HBs reactivity. The antiidiotype antiserum (with regions) thus recognizes only that region of the IgG molecule (shown as ) which specifically reacts with HBsAg. […] Thus, it is possible that the CId associated with human anti-HBs antibodies may be blocked from reacting with a specific anti-Id reagent by prior incubation with either HBsAg or with peptide 1 if the peptide is antigenically related to HBsAg. […]
substance,measurement,setting,value
Human serum albumin: control inhibitor,Percent Inhibition of the Common Anti-HBs Idiotype Binding Its Anti-Idiotype Antiserum,Concentration 5.0 μg,0%
same,Percent Inhibition of the Common Anti-HBs Idiotype Binding Its Anti-Idiotype Antiserum,Concentration 20.0 μg,0%
